The assay has as its target human angiotensin II AT1 receptor (Homo sapiens, UniProt P30556). Briefly: human angiotensin II AT1 receptor (antagonist radioligand) binding assay. To be noted: [125I][Sar1-Ile8] angiotensin-II radioligand, cell membrane homogenates. Here is the method:
Cell membrane homogenates (8 µg protein) are incubated for 120 min at 37° C. with 0.05 nM [125I][Sar1-Ile8] angiotensin-II in the absence or presence of the test compounds in a buffer containing 50 mM Tris-HCl (pH 7.4), 5 mM MgCl2, 1 mM EDTA and 0.1% BSA. Nonspecific binding is determined in the presence of 10 µM angiotensin II. Following incubation, the samples solution are filtered rapidly under vacuum through glass fiber filters (GF/B, Packard) presoaked with 0.3% PEI and rinsed several times with ice-cold 50 mM Tris-HCl using a 96-sample cell harvester (Unifilter, Packard). The filters are dried then counted for radioactivity in a scintillation counter (Topcount, Packard) using a scintillation cocktail (Microscint 0, Packard).
The results are expressed as a percent inhibition of the control radioligand specific binding. Saralasin is used as the standard reference compound, which is tested in each experiment at several concentrations to obtain a competition curve from which its IC50 is calculated.

The structures appear in SMILES notation.

With `CCCc1nc2c(C)cc(-c3nc4ccccc4n3C)cc2n1Cc1ccc(-c2ccccc2C(=O)O)cc1` [Telmisartan, reference compound], the Kd stood at 3 nM.

In general, Kd refers to the equilibrium constant for the complex coming apart.

For the origin of these results see patent publication US20230233696A1, “TRIANTENNARY N-ACETYLGALACTOSAMINE MODIFIED HYDROXYL POLYAMIDOAMINE DENDRIMERS AND METHODS OF USE THEREOF” (Ashvattha Therapeutics, Inc., priority 2019, published 2023).
